# AlphaSeq binding of Ab-14 light chain variants to a spike HR2 peptide

All variants were tested on one target, the spike HR2 peptide PDVDLGDISGINAS (SARS-CoV-2).

Ab-14 is the parent antibody, in scFv form: VH, then a (GGGGS)3 linker, then VL. The heavy chain is unchanged in all variants.
VH: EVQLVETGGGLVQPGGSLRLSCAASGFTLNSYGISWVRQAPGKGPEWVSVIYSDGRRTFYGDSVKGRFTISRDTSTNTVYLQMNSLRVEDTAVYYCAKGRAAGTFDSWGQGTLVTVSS
VL: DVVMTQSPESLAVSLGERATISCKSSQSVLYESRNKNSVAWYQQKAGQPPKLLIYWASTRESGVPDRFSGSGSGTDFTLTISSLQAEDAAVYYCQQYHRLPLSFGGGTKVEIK

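The parent was found by panning a naive human phage display library on the peptide. This is the validation round: designs drawn from the data on random variants, tested in the same kind of assay. Group labels follow the data file (En: ensemble of fine-tuned language models; GP: Gaussian process model; HC: hill climbing; Gen: genetic algorithm; Gibbs: Gibbs sampling; a sequence that several methods proposed may carry one label only). The assay is AlphaSeq: two haploid yeast populations carry antibody and antigen on their surface. Mating (16 h, 30 °C) was followed by selection of diploids and sequencing of their barcodes. Read counts were normalised to the haploid input and turned into Kd by a linear fit to BCL2-family pairs of known affinity, for each replicate. There are six technical replicates.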

Variants are written as CDR1, CDR2 and CDR3 of the light chain (limits as in the source). Parent: KSSQSVLYESRNKNSVA, WASTRES, QQYHRLPLS. This list holds designs with more than six substitutions. Scale: log10 of Kd in nM, estimated from mating counts; low values are strong binders. The mean shown is taken over the replicates in which the pair was detected. An entry "nd" has no value in the source: the pair was not observed among the diploids in any replicate. This suggests poor binding but is not conclusive. Values of this round are not directly comparable with the first-round values of the same sequences. Of ten entries with the parent sequence, four were seen in most replicates (averages 0.34 to 2.37), three in one and three in none, so single entries are noisy. In the paper, a design with two or fewer of six values counts as a poor binder. Nonspecific signal, from three strains lacking the peptide, appeared in 4% of pairings of all light chain designs, centred on 2.64 (5% of these signals below 1.59); values are not corrected for it. The control count says in how many pairings with the empty strains this scFv gave a signal.

For KIDGQTSYDNGRERAIA | DVTIRFW | QQYARLPLL [En_Gibbs], the assay gave 2.01 (5 of 6 replicates; controls 0 of 18).
For KMKQSIEGNPKNWNSIA | DVDSTIE | QQYARLPLF [En_Gibbs], the assay gave 0.04 (6 of 6 replicates; controls 0 of 18).
For KLDISELYESRNWNSVA | NASQREE | QQYHRLPLS [GP_Gibbs], the assay gave -0.11 (6 of 6 replicates; controls 1 of 18).
For KVMQSVLYEDRNVNNVA | NGSTRCS | QQYHRLPLS [GP_Gibbs], the assay gave -0.34 (6 of 6 replicates; controls 0 of 18).
For KLMSLTGTEKVRGNNVA | EMETREK | QQYNRLPLA [En_Gen], the assay gave 0.42 (6 of 6 replicates; controls 1 of 18).
For KLVNFMNRGTHHTSNIA | DAQTRLD | QQYARLPLA [En_Gen], the assay gave 0.31 (6 of 6 replicates; controls 0 of 18).
For QITNQTAGISNGIASIA | EETNLTD | QQYNHLPLS [En_Gibbs], the assay gave 2.36 (6 of 6 replicates; controls 1 of 18).
For KFSPSVLYEDRNWNSVA | QASQRNS | QQYHRLPLS [GP_Gibbs], the assay gave 0.40 (6 of 6 replicates; controls 3 of 18).
For KIGATLNTLYEKANNVA | DLVEREN | QQYHRLPLS [En_Gen], the assay gave 1.36 (5 of 6 replicates; controls 0 of 18).
For TLVDWIQGGTWAKKNVA | DEQTRMV | QQYYRLPLS [En_Gibbs], the assay gave 1.42 (4 of 6 replicates; controls 0 of 18).
For IISGVMLVESKHTNSVA | NAETREY | QHYDRLPLS [En_HC], the assay gave 1.93 (6 of 6 replicates; controls 3 of 18).
For KVSQSVMMLTRNKNSVA | DNSTSGS | QQYHRLPLS [En_HC], the assay gave 2.05 (6 of 6 replicates; controls 1 of 18).
For KVSGSDLLWSRTANQVA | EASTRES | QQYHRLPLS [GP_Gibbs], the assay gave 0.47 (6 of 6 replicates; controls 2 of 18).
For QLEWYNSTATAAKNSVA | GVEHRMN | QQYMRLPLF [En_Gibbs], the assay gave 0.73 (6 of 6 replicates; controls 0 of 18).
For KLSMSMLMEQRNKNSVA | ENSTRES | QHYHRLPLS [En_HC], the assay gave nd (0 of 6 replicates; controls 0 of 18).
For NFEMFDGMLNMYASSIA | NAHCLVQ | QQYYRLPIS [En_Gibbs], the assay gave 1.70 (6 of 6 replicates; controls 3 of 18).
For KMSQSNPYESRNWNSVA | NASKRLS | QQYHRLPLS [GP_Gibbs], the assay gave 0.27 (6 of 6 replicates; controls 2 of 18).
For KISQMANFESTHINAVA | QMSTREE | QQYFRLPLS [En_HC], the assay gave 0.51 (6 of 6 replicates; controls 1 of 18).
For TIADVMGHISKNTNNVA | DMDTRGE | QQYNRLPLS [En_Gen], the assay gave -0.21 (6 of 6 replicates; controls 2 of 18).
For KLTQTMRFEQKKKNNIA | EVTTRSK | QQYARLPIS [En_Gen], the assay gave 2.96 (3 of 6 replicates; controls 0 of 18).
For NLSISMLHESINKHNVA | EVRTRES | QQYDRLPLS [En_HC], the assay gave 0.85 (6 of 6 replicates; controls 0 of 18).
For KFEQSWLYESRNVNSVA | QASQRSD | QQYHRLPLS [GP_Gibbs], the assay gave 0.60 (6 of 6 replicates; controls 1 of 18).
For NLQLQPRDGAQAQSSIA | DVSEADM | QQYARLPLT [En_Gibbs], the assay gave 0.73 (6 of 6 replicates; controls 0 of 18).
For KMAQGWEYESRNKNSVA | NASVRES | QQYHRLPLS [GP_Gibbs], the assay gave 0.04 (6 of 6 replicates; controls 2 of 18).
For KFDFQWPELNYQDNSIA | GMTVSIE | QQYWRLPLT [En_Gibbs], the assay gave 1.85 (1 of 6 replicates; controls 0 of 18).
For FITYQQDQTGLQRNAIA | QVNLKEQ | QQYGRLPFA [En_Gibbs], the assay gave 1.78 (5 of 6 replicates; controls 0 of 18).
For KLYYSDGGLQRNKNAVA | EASTREM | QQYHRLPLS [GP_Gibbs], the assay gave 0.18 (6 of 6 replicates; controls 0 of 18).
For MISQLYNMGQFAINSVA | QASNRNE | QQYDRLPLM [En_Gen], the assay gave 1.72 (3 of 6 replicates; controls 0 of 18).
For KLVGPDDNDNQDMRAVA | DVNTLGN | QQYHRLPLG [En_Gibbs], the assay gave 1.46 (6 of 6 replicates; controls 0 of 18).
For KLRTVTGTEKVIGNNVA | EMETRER | QQYNRLPLS [En_Gen], the assay gave 1.61 (6 of 6 replicates; controls 0 of 18).
For TISQMTSLFSMSINNVA | EVSTREE | QQYDRLPLV [En_Gen], the assay gave 0.79 (6 of 6 replicates; controls 2 of 18).

From the AlphaSeq antibody data of Li et al. 2023 (doi:10.1038/s41467-023-39022-2), copy in the FLAb collection.